Here are results for two compounds from paper PMC10648875 (Antimicrobial Agents and Chemotherapy, 2023).

Protein sequences, listed by entry. Tags and fused reporters are not part of them. Residues count along the entry.
UniProt Q9F663, 25-293 limits assumed: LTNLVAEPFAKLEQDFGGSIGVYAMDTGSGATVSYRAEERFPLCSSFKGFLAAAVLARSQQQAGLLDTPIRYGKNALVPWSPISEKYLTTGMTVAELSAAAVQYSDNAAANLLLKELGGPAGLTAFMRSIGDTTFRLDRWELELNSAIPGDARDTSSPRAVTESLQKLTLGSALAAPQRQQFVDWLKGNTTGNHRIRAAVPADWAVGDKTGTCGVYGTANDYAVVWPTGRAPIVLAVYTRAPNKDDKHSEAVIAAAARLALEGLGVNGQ
UniProt C7C422, 29-270 limits assumed: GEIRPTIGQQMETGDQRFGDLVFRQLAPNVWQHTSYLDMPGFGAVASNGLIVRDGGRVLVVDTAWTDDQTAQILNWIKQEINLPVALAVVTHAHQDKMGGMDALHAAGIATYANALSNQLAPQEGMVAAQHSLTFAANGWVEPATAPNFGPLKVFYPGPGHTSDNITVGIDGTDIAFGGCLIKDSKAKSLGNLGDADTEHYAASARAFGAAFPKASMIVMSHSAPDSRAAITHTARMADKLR

In general, IC50 refers to the concentration that gives 50% inhibition. A lower IC50 goes with greater potency.

Assay [1] deals with KPC-2 (Klebsiella pneumoniae, UniProt Q9F663). Kind of assay: Ki app of β-lactamase inhibition, purified enzyme. The class given is biochemical. The method, then: (§1) The majority of purified β-lactamase enzymes used in the study were either expressed and purified internally ([35]) or obtained from Emerald Biostructures (Bainbridge Island, WA, USA). L1 enzyme was purified as described in reference ([36]).
(§2) Enzymes were mixed with BLIs at concentrations varying from 160 to 0.0027 µM in 50-mM Na-phosphate pH7.0, 0.1-mg/mL bovide serum albumin (BSA) (buffer A; 20-µM ZnCl2 was also added for all metalloenzymes) and incubated for 10 minutes at 37°C. Nitrocefin (50 µM) (10 µM for SHV-12) or 100 µM of imipenem (prewarmed at 37°C for 10 minutes) was added, and substrate cleavage profiles were recorded at 37°C at 490 nm every 10 seconds for 10 minutes or at 294 nm every 30 seconds for 1 hour for nitrocefin and imipenem, respectively. […] Ki app values (Ki for metalloenzymes) were calculated by the method of Waley ([37]).

Assay [2] has as its target NDM-1 (Klebsiella pneumoniae, UniProt C7C422). Kind of assay: biochemical. The procedure:
as §1, §2

Assay [3] deals with T1, NDM-1 (lysate of KP1081) (Klebsiella pneumoniae, UniProt C7C422).
T1 construct: endogenous in cells; host or cells: K. pneumoniae KP1081
Kind of assay: biochemical. The arrangement: species or system K. pneumoniae.

For assay [4], the target named is T2, NDM-1 in whole cells of KP1081 (functional OmpK36) (Klebsiella pneumoniae, UniProt C7C422).
T2 construct: endogenous in cells; host or cells: K. pneumoniae KP1081
The assay is described as follows: cell-based. The arrangement: species or system K. pneumoniae.

`O=C(NC1CCNCC1)[C@@H]1CC[C@@H]2CN1C(=O)N2OS(=O)(=O)O` [Relebactam, relebactam] yielded a Ki in assay [1] of 40 ± 8 nM.

`O=C(O)c1c(F)ccc2c1OB(O)[C@@H]1C[C@H]21` [Xeruborbactam, xeruborbactam] came in with a Ki in assay [2] of 7.5 ± 2.1 nM. Further, the IC50 in assay [3] worked out at 770 ± 120 nM; in assay [4] it was 16600 ± 1000 nM.
